From US7531500B2, “Preventing airway mucus production by administration of EGF-R antagonists” (The Regents of the University of California, priority 1998, dated 2009)

Target: EGFR (Homo sapiens, UniProt P00533)
Assay: Immunoprecipitation of EGF-R and immunoblotting for tyrosine phosphorylation in NCI-H292 cells
Format: cell-based
Parameters: These cells express EGF-R constitutively; endogenous in cells; host or cells: NCI-H292 (human pulmonary mucoepidermoid carcinoma)
Settings: pretreatment of NCI-H292 cells
Description: Immunoprecipitation for EGF-R Protein and Immunoblotting for Tyrosine Phosphorylation. Cells were serum-starved for 24 h and then stimulated with TGFα, H2O2, or the supernatant of activated neutrophils for 15 min. After stimulation, cells were lysed and incubated for 30 min in an orbital shaker at 4° C. To remove insoluble material, cell lysates were centrifuged at 14,000 rpm for 5 min at 4° C. Aliquots of supernatants containing equal amounts of protein were immunoprecipitated with anti-EGF receptor antibody (polyclonal, Ab4, Calbiochem) and 20 μl of protein A-agarose (Santa Cruz) for 2 h at 4° C. Precipitates were washed three times with 0.5 ml of lysis buffer, suspended in SDS sample buffer, and boiled for 5 min. Proteins were separated by SDS-PAGE in 8.0% acrylamide gel. The resulting gel was equilibrated in the transfer buffer: 25 mM Tris-HCl, 192 mM glycine, 20% (vol/vol) methanol, pH 8.3. The proteins were then transferred electrophoretically to nitrocellulose membranes (0.22 μm), blocked with 5% fat-free skimmed milk in PBS containing 0.05% Tween 20 overnight and then incubated with monoclonal anti-phosphotyrosine antibody (1:100,Santa Cruz) for 1 h. Bound antibody was visualized according to a standard protocol for the avidin-biotin-alkaline phosphatase complex method (ABC kit, Vector Laboratories).

COc1cc2ncnc(Nc3cccc(Cl)c3)c2cc1OC [AG1478]
EGF-R tyrosine phosphorylation by all stimuli: inhibited
